{"source": "patent US12258310B2", "about": "“Solid peroxyalphahydroxycarboxylic acid generation compositions and the use thereof” (ECOLAB USA INC., priority 2021, dated 2025)", "experiment": "Physical property (vapor pressure, odor) of alphacarboxylic acids and peroxyalphacarboxylic acids", "assay_type": "physicochemical", "data": [{"smiles": "O=C(CO)OO", "values": [{"measurement": "Odor", "result": "Odorless"}]}]}
